{
  "source": "patent US20220380769A1",
  "about": "(priority 2020, published 2022)",
  "origin": "cited, not measured here",
  "conditions": "concentration of 2.5 mg/ml; preclinical and clinical studies; cited from earlier work",
  "data": [
    {"substance": "rIn.r(C12U)n [Rintatolimod]", "values": [
      {"measurement": "safety profile administered intranasally", "result": "well-tolerated"}
    ]}
  ]
}
